# Experiments:
# pH of saturated solution = format: physicochemical; conditions: saturated solution in deionized water, room temperature
# Procedure: A saturated solution of each of the salts was prepared in 5 mL of deionized water at room temperature prior to analysis.
# [1] = Aqueous solubility assessment of salt screen solids (visual); conditions: Ca. 5 mg in up to 4000 μL water (1.25 mg/ml), shaken overnight at 50° C.
# Procedure: Aqueous solubility assessment was performed using Ca. […] These samples were added to aliquots of deionized water up to a maximum of 4000 μL with the samples being shaken between additions to encourage dissolution prior to a visual inspection.
substance,measurement,setting,value
salt of 4-(2-((4-bromophenyl)thio)acetamido)-1-phenethyl-1H-pyrazole-3-carboxylic acid and diethylamine [diethylamine salt],pH of rm temp sat'd sol'n,pH of saturated solution,8.08
salt of 4-(2-((4-bromophenyl)thio)acetamido)-1-phenethyl-1H-pyrazole-3-carboxylic acid and choline,"Solubility assessment (dissolution in deionized water), salt from MIBK",[1]; salt prepared from MIBK,No dissolution
salt of 4-(2-((4-bromophenyl)thio)acetamido)-1-phenethyl-1H-pyrazole-3-carboxylic acid and L-lysine,"Solubility assessment (dissolution in deionized water), salt from DIPE",[1]; salt prepared from DIPE,Partial

# Source: US11242321B2, “Salt forms of organic compound” (KAINOS MEDICINE INC., priority 2018, dated 2022)
